Experimental data reported in the NIST ThermoML archive (doi:10.1016/j.jct.2007.09.004).

How the values were obtained:
[1] = relative permittivity at zero frequency (dimensionless); conditions: 101.3 kPa, Liquid, Parallel plate capacitor
[2] = 101 kPa, Liquid
[3] = xn = mol fraction of the nth substance listed; conditions: 101 kPa, Liquid, x2 = 0
[4] = relative permittivity at zero frequency (dimensionless); xn = mol fraction of the nth substance listed; conditions: 101 kPa, Liquid, Parallel plate capacitor, x2 = 0

Row | relative permittivity at zero frequency ([1]; 293.15 K) | relative permittivity at zero frequency ([1]; 298.15 K) | relative permittivity at zero frequency ([1]; 303.15 K) | mass density ([2]; 293.15 K) [kg/m3] | mass density ([2]; 298.15 K) [kg/m3] | mass density ([2]; 303.15 K) [kg/m3] | mass density ([3]; 293.15 K) [kg/m3] | mass density ([3]; 298.15 K) [kg/m3] | mass density ([3]; 303.15 K) [kg/m3] | relative permittivity at zero frequency ([4]; 293.15 K) | relative permittivity at zero frequency ([4]; 298.15 K) | relative permittivity at zero frequency ([4]; 303.15 K) | Compound
1 | 20.44 ± 0.04 | 19.91 ± 0.04 | 19.35 ± 0.04 | 1123.43 ± 1.9 | 1120.19 ± 1.9 | 1116.94 ± 2 | – | – | – | – | – | – | OCCOCCOCCOCCO [tetraethylene glycol]
2 | – | – | – | – | – | – | 1123.43 ± 1.9 | 1120.19 ± 1.9 | 1116.94 ± 2 | 20.44 ± 0.04 | 19.91 ± 0.04 | 19.35 ± 0.04 | OCCOCCOCCOCCO [tetraethylene glycol] + CCCOCCO

± gives the expanded uncertainty stated by the source.
